This is an account of results in publication PMC7723054.

What all share (assay): FOREST: bead pull-down of RNA structure library v1, barcode microarray; U1A/LIN28A: 20 mM HEPES pH 7.5, 80 mM KCl, 20 mM NaCl, 10% glycerol, 2 mM DTT, 0.1 ug/uL BSA, 4 C; BG4/CIRBP/DHX36: 10 mM Tris-HCl pH 7.5, 100 mM KCl (or LiCl),; high values mean tight binding
For one test, the target named is T1, LIN28A (human?, UniProt Q9H9Z2 1-209).
T1 sequence: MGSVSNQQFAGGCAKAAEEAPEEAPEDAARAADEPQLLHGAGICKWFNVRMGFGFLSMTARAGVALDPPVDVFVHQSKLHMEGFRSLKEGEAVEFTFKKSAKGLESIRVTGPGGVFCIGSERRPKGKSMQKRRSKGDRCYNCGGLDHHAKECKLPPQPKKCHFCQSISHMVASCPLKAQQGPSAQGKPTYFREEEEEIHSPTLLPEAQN

The target in a further test is T2, CIRBP (Homo sapiens, UniProt Q14011 1-172).
T2 sequence: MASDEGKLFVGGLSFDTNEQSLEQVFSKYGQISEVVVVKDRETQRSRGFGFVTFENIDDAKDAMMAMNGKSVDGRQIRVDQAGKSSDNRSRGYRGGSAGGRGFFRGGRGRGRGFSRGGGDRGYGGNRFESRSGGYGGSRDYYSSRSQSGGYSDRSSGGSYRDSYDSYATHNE

Another test has as its target T3, DHX36 (Homo sapiens, UniProt Q9H2U1 1-1008).
T3 sequence: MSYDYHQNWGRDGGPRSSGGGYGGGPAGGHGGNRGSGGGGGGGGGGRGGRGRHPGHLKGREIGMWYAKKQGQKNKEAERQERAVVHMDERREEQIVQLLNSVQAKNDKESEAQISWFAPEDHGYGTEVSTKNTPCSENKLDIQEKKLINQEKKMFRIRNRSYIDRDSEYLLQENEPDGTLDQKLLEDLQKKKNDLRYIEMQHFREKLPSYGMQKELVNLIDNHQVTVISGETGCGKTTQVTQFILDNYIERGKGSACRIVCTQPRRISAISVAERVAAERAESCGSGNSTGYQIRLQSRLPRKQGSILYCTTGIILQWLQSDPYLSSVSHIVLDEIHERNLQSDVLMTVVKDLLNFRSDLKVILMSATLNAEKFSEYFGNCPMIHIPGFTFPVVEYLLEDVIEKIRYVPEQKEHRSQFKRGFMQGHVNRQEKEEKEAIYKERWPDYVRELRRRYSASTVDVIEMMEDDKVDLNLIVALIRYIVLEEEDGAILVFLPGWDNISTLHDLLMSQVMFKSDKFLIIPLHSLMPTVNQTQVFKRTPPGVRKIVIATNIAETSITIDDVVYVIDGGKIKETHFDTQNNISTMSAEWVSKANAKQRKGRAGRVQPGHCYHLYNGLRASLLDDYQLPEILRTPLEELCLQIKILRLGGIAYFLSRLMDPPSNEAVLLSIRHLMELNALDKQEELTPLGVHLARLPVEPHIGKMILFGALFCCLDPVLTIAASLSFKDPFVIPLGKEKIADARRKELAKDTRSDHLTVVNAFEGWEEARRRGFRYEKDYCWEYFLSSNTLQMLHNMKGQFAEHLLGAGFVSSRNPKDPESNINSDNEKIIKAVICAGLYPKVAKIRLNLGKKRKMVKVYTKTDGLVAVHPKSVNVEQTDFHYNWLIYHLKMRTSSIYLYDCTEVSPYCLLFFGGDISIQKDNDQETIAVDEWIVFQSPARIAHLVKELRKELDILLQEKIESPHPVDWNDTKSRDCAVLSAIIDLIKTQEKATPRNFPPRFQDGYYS

The other results are listed elsewhere or left out.

B1: hsa-mir-4679-2 (structured_RNA)
RNA: GGGAGCUCACAGCGUCCAAUCGGUCAACGGUGUACGAAGUUUCAGCUGCUUUUUGUUUCUAACAAAGCAGCUGAAGCUUCGUGCAC
With B1, the binding signal with LIN28A is -1.83 z-score; with CIRBP, -0.261 z-score; in the test with DHX36, -0.661 z-score.

B2: hsa-mir-4518 (structured_RNA)
RNA: GGGACAGGCGCCGCGAUCUAUAGACUUAGGUGUACGAAGUUUCAGCAUGUCUGCUGGGGAACCGGGGCUGCUGAAGCUUCGUGCAC
For the molecule B2, the values for the binding signal with LIN28A, with CIRBP and with DHX36 were -1.84 z-score, -0.832 z-score and -0.945 z-score, respectively.

B3: hsa-mir-8077 (structured_RNA)
RNA: GGGAAAGCAAACGAAAGCCUGUUAGCCUGGUGUACGAAGUUUCAGCAGUCCAAAGGAAAGGGCUGCUGAAGCUUCGUGCAC
As for B3, the binding signal was -1.88 z-score in the test with LIN28A, 0.817 z-score in the test with CIRBP and -1.02 z-score with DHX36.

B4: hsa-mir-4658 (structured_RNA)
RNA: GGGAUCAUGCUGGGUUCCUUAGGCGUCGGGUGUACGAAGUUUCAGCCCACUACCGGUGAGCUGAAGCUUCGUGCAC
As to B4, the binding signal was -1.87 z-score with LIN28A, -0.922 z-score in the test with CIRBP and -1.6 z-score with DHX36.

B5: hsa-mir-548aw (structured_RNA)
RNA: GGGAUCGUAUAAGGUGUUACCAUGGCCCGGUGUACGAAGUUUCAGCGGUUUUUACCAUUAAAACCGCUGAAGCUUCGUGCAC
On to B5, for which the binding signal with LIN28A was -1.83 z-score; with CIRBP it was -0.53 z-score; with DHX36, 0.475 z-score.

B6: hsa-mir-4532 (structured_RNA)
RNA: GGGAGCUGCGUACCCUACUACGUAAACGGGUGUACGAAGUUUCAGCGGCGGUGAAGCUCCGCUGAAGCUUCGUGCAC
With B6, the binding signal with LIN28A was -1.85 z-score; with CIRBP it was -1.06 z-score; in the test with DHX36, -0.464 z-score.

B7: hsa-mir-564 (structured_RNA)
RNA: GGGAACGCUAGGGCUAACGCUUAAACCGGGUGUACGAAGUUUCAGCAGGCAACAUGGCCGAGAGGCCGGGGCCUGCUGAAGCUUCGUGCAC
In the case of B7, the binding signal with LIN28A was -1.88 z-score; in the test with CIRBP, -0.776 z-score; with DHX36, -0.262 z-score.

B8: hsa-mir-6069 (structured_RNA)
RNA: GGGAAAUUAGGGUCAUCUAGAAAUCCGUGGUGUACGAAGUUUCAGCCCCUGCCCAGUGCAGGAGGCUGAAGCUUCGUGCAC
Consider B8, for which the binding signal in the test with LIN28A is -1.89 z-score; in the test with CIRBP it was -0.598 z-score; in the test with DHX36, -0.681 z-score.

B9: hsa-mir-4261 (structured_RNA)
RNA: GGGAAAUUUUAGAGAACCGCGCGGAGGUGGUGUACGAAGUUUCAGCUCCUGAGACAGGAGCUGAAGCUUCGUGCAC
Take B9: the binding signal in the test with LIN28A was -1.83 z-score; with CIRBP it was -0.396 z-score; with DHX36 it was -0.498 z-score.

B10: hsa-mir-548i-3_548i-2_548i-1 (structured_RNA)
RNA: GGGACGGGGACGUCUUAAGAACUCGUGGGGUGUACGAAGUUUCAGCUGCCAUUAAAAGUAAUGGCAGCUGAAGCUUCGUGCAC
For the molecule B10, the binding signal with LIN28A is -1.88 z-score; in the test with CIRBP it was -0.307 z-score; with DHX36, -0.141 z-score.

B11: hsa-mir-1909 (structured_RNA)
RNA: GGGACGCCAGUAUGCAAAUUAAGUGCUCGGUGUACGAAGUUUCAGCUGCCCUGGGGCCGUCCCUGCGCAGCUGAAGCUUCGUGCAC
On to B11, for which the binding signal with LIN28A is -1.83 z-score; with CIRBP, -1.41 z-score; with DHX36, -0.441 z-score.

B12: hsa-mir-4738 (structured_RNA)
RNA: GGGAGAAACGCAUCCCGUCGCUAAAAUGGGUGUACGAAGUUUCAGCUUCAUAGGGAAGCCUUUCCAUGAAGCUGAAGCUUCGUGCAC
As for B12, the binding signal with LIN28A was -1.87 z-score; in the test with CIRBP, 0.292 z-score; with DHX36, -0.259 z-score.

B13: hsa-mir-4292 (structured_RNA)
RNA: GGGCAUUCAAACCCUAAGUGUGGCUAUGGGUGUACGAAGUUUCAGCGAGGCCAGAGGUGCCCGCUGAAGCUUCGUGCAC
For B13, the binding signal is -1.85 z-score with LIN28A, -0.578 z-score in the test with CIRBP and -0.636 z-score with DHX36.
